# Columns and labels:
# Type in all cases: cell-based
# canine DCs = test: FCM: binding of rhCTLA-4 to canine DCs; details: 30 nM rhCTLA-4, FITC-anti-hIgG-Fc Ab
# [1] = system: canine T cells with allogeneic canine DCs; test: Canine mixed lymphocyte reaction, [3H]-thymidine incorporation; details: rhCTLA-4, canine MLR
# canine T cell fraction = test: FCM: binding of rhCTLA-4 to canine T cell fraction; details: rhCTLA-4 Ig, various concentrations; FITC-anti-hIgG-Fc Ab; n = 3
substance,measurement,setting,value
rhCTLA-4: chimeric protein composed of the extracellular domain of rhCTLA-4 and a constant region of hIgG,binding to canine DCs (fluorescence intensity),canine DCs,observed through an increase in fluorescence intensity
same,interaction between canine DCs and canine T cells,[1],inhibits the interaction between canine DCs and canine T cells
same,binding to canine T cell fraction (fluorescence intensity),canine T cell fraction,that of the T cell fraction did not

# Source: article PMC9412056 (The Journal of Veterinary Medical Science, 2022)
